The text below walks through data of PubChem BioAssay AID588674 (Broad Institute, 2011).

For orientation: inhibition means the change of the read-out against control, counted positive when it falls.

Only a part is listed here, and it is no random draw. Active and inactive are the calls of the source.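 Rule for the calls: active = mean inhibition of at least 75% with every replicate also reaching 75%; inconclusive = mean inhibition at least 75% but some replicate below; inactive = mean inhibition below 75%.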

This experiment is described as follows: reduction of Shn3 3'UTR firefly luciferase signal, primary screen, Schnurri-3 inhibitor project, cell-based, Clone20 osteoblasts, set 2 (AID 588674).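 Note: 0% = median of neutral control wells and 100% = pilot-screen positive control compound.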 The conditions noted are these: Clone20 osteoblast Shn3 3'UTR firefly luciferase, 24 h; at 12.5 µM; hits give high values.
As for `O=P1(N(CCCl)CCCl)OCCCS1` (stereo not drawn), the inhibition was inactive: 5.44%.
For `O=C(Nc1cc([As](=O)(O)O)ccc1O)c1ccccc1`, the inhibition was inactive: 3.91%.
As to `O=[N+]([O-])c1ncn(CCn2ncnc2[N+](=O)[O-])n1`, the inhibition is inactive: 13%.
As to `CC(C)(C)C(=O)NC(Sc1ccncn1)C(Cl)(Cl)Cl` (stereo not drawn), the inhibition is inactive: -14.3%.
Under `O=C(O)CNc1ccc([As](=O)(O)O)cc1` stands inactive: 11.5%.
As to `O=[N+]([O-])c1cccc(NC2=NCC(CBr)S2)c1` (stereo not drawn), the inhibition was inactive: -6.93%.
`COC(=O)C1(C)COP(=O)(Nc2ccccc2)OC1` (stereo not drawn): the inhibition is inactive: -13.4%.
Under `COc1ccc(C2=NCC(CBr)S2)cc1` (stereo not drawn) stands inactive: 4.88%.
The same measure for `O=[N+]([O-])c1cc([N+](=O)[O-])c(CCNc2ccccc2)c([N+](=O)[O-])c1`: inactive: -13.1%.
As to `Cc1ccc(NP(=O)(Oc2ccccc2)Oc2ccccc2)nc1`, the inhibition is inactive: -8.56%.
The same measure for `CC(=O)N1C2C3N(C(C)=O)C1C1N(C(C)=O)C(C(N1C(C)=O)N3C(C)=O)N2C(C)=O`: inactive: -7.83%; for `O=[N+]([O-])c1cccc2n[nH]nc12`: inactive: -7.64%.
Consider `CCN(/C(=N/P(=O)(N1CCOCC1)N1CCOCC1)N1CCOCC1)c1ccc(OC)cc1`, for which the inhibition was inactive: 10.7%.
Under `C[N+]1=C2C=CC=CC=C2SC12C([N+](=O)[O-])=CC([N+](=O)[O-])=C[C-]2[N+](=O)[O-]` (stereo not drawn) stands inactive: 12.1%; under `Nc1ccc([As](=O)(O)c2ccc(N)cc2)cc1`, inactive: -2.84%.
The same measure for `c1cc(-c2nn[nH]n2)ccc1-c1nn[nH]n1`: inactive: 1.71%; for `CC1CCN(C(=O)Oc2c(Cl)cc(Cl)c3cccnc23)CC1`: inactive: 3.3%.
For `CN(C)C(=O)OCCc1n(C)cc[n+]1C`, the inhibition is inactive: -15.1%.
Consider `CC(C)=N/N=C(\N)N[N+](=O)[O-]`, for which the inhibition was inactive: -11.9%.
Under `CC(C)c1nc(Nc2ccccc2)n(P(=O)(N(C)C)N(C)C)n1` stands inactive: 6.26%.
Under `Cc1ccc(N/C(=N/P(=O)(N2CCOCC2)N2CCOCC2)N2CCOCC2)cc1` stands inactive: -7.09%; under `CN(C(=O)Cc1ccc(Cl)c(Cl)c1)[C@H]1CCCC[C@H]1N1CCCC1`, inactive: -5.21%.
The same measure for `NC(=O)c1cc([N+](=O)[O-])cc([N+](=O)[O-])c1N`: inactive: 10.7%.
Take `Clc1ccc(Cl)c(NC2=NCC(CBr)S2)c1` (stereo not drawn): the inhibition is inactive: -5.52%.
As for `CN1CCCC(OC(=O)C(c2ccccc2)c2ccccc2)C1` (stereo not drawn), the inhibition was inactive: 2.82%.
Under `Cc1ccc(OP(=O)(Nc2nccs2)Oc2ccc(C)cc2)cc1` stands inactive: 5.21%; under `COc1ccccc1OP(=O)(Nc1ccc(C)cn1)Oc1ccccc1OC`, inactive: 7.87%; under `O=C(NC(Sc1ccncn1)C(Cl)(Cl)Cl)c1ccccc1` (stereo not drawn), inactive: -4.29%.
`Oc1ccccc1CNc1ccccn1`: the inhibition is inactive: 5.17%.
Under `CC(C)CC(=O)NC(Sc1ccc(Cl)cc1)C(Cl)(Cl)Cl` (stereo not drawn) stands inactive: -4.46%; under `Nc1cc(N)c2nonc2c1[N+](=O)[O-]`, inactive: 1.52%; under `O=[N+]([O-])C1C(O)C(O)C([N+](=O)[O-])C(O)C1O` (stereo not drawn), inactive: -15.5%.
`CN(C)P(=O)(N(C)C)n1c(Nc2ccccc2)nnc1-c1ccccc1`: the inhibition was inactive: -26.6%.
Under `O=P(Nc1nc2ccc(Cl)cc2s1)(c1ccccc1)c1ccccc1` stands inactive: 11.1%; under `CCCC1OP(N)(=O)OCC1CC` (stereo not drawn), inactive: -32.1%.
The same measure for `O=C(O)c1ccccc1[As](=O)(O)O`: inactive: -28.8%.
`CC(=O)Nc1ccc([As](=O)(O)O)cc1`: the inhibition was inactive: -6.05%.
Under `CN(C(=O)Cc1ccc(Cl)c(Cl)c1)[C@H]1CCCC[C@@H]1N1CCCC1` stands inactive: 6.6%; under `Cc1ccc(NP(=O)(Oc2ccccc2F)Oc2ccccc2F)nc1`, inactive: 4.76%.
Under `CCOP(=O)(Nc1ccccc1)OCC` stands inactive: 5.85%; under `Cc1cc(SC(NC(=O)c2ccc(F)cc2)C(Cl)(Cl)Cl)ncn1` (stereo not drawn), inactive: -17.7%.
Take `Nc1cccc2ccc([As](=O)(O)O)cc12`: the inhibition was inactive: -7.73%.
In the case of `CCN(N=Nc1nonc1N)c1nonc1N`, the inhibition was inactive: 7.94%.
The same measure for `Cc1ccc(NP(=O)(Oc2cccc(C)c2)Oc2cccc(C)c2)nc1`: inactive: 5.34%; for `c1ccc(-c2nn[nH]n2)c(-c2nn[nH]n2)c1`: inactive: 8.41%; for `O=C(NC1CCS(=O)(=O)C1)NP(=S)(Oc1ccccc1)Oc1ccccc1` (stereo not drawn): inactive: 11.3%.
Under `CCNC(=S)/N=C(\N)N[N+](=O)[O-]` stands inactive: -2.39%; under `O=P1(N(CCCl)CCCl)OCCC2CCCCN21` (stereo not drawn), inactive: -4.85%; under `CCC(=O)N1C2C3N(C(=O)CC)C1C1N(C(=O)CC)C(C(N1C(=O)CC)N3C(=O)CC)N2C(=O)CC`, inactive: -27.8%.
Consider `O=C(OC1CN2CCC1CC2)c1ccccc1` (stereo not drawn), for which the inhibition was inactive: 1.79%.
Under `CC(=O)NC(SC(=S)N(CC(C)C)CC(C)C)C(Cl)(Cl)Cl` (stereo not drawn) stands inactive: -8.44%; under `Cc1ccc(OP(=O)(Nc2ccccn2)Oc2ccc(C)cc2)cc1`, inactive: 26%.
The same measure for `COC(=O)c1cc2c(s1)N=C(c1ccccc1)N(C)P2(=O)N1CCOCC1` (stereo not drawn): inactive: 7.97%; for `CN(C)C(=O)Oc1noc2ccccc12`: inactive: 7.97%; for `Cc1ccccc1OP(=O)(Nc1ccccn1)Oc1ccccc1C`: inactive: -6.21%.
As to `CC(NC(=O)COC(=O)C(O)(c1ccccc1)c1ccccc1)c1ccccc1` (stereo not drawn), the inhibition is inactive: 21%.
As to `CCOc1ccc(C2=NCC(CBr)S2)cc1` (stereo not drawn), the inhibition is inactive: -3.41%.
Under `O=P1(Nc2nc3ccc(Cl)cc3s2)COc2ccccc2O1` (stereo not drawn) stands inactive: -24.1%; under `CC(C)(C)C(=O)NC(Sc1ccccc1)C(Cl)(Cl)Cl` (stereo not drawn), inactive: 7.04%.
The same measure for `CCc1cc(O)c([N+](=O)[O-])c(C)c1[N+](=O)[O-]`: inactive: -13.6%.
The same measure for `C[C@@H]1C=CCP(=O)(Oc2ccccc2)O1` (stereo partly drawn): inactive: 5.05%; for `C[C@H]1OP(=O)(Oc2ccccc2)C[C@@H]2O[C@@H]21` (stereo partly drawn): inactive: 9.04%.
As for `Cc1ccccc1CN(C)C(=O)COC(=O)C(O)(c1ccccc1)c1ccccc1`, the inhibition was inactive: 3.42%.
The same measure for `COC(=O)C1(C)COP(=O)(NCc2ccccc2)OC1` (stereo not drawn): inactive: 5.49%.
Under `N#C/C(=C\c1ccc(N(CCBr)CCBr)cc1)C(N)=O` stands inactive: 29.1%.
On to `CC(=O)c1ccc(N2CC2c2ccncc2)cc1` (stereo not drawn), for which the inhibition was inactive: -15.5%.
Turning to `CC(=O)Nc1ccc(Oc2c([N+](=O)[O-])cc([N+](=O)[O-])cc2[N+](=O)[O-])cc1`, the inhibition was inactive: -4.7%.
Under `CC(=O)Nc1ccc([As](=O)(O)O)c(O)c1` stands inactive: 10.7%; under `O=P(Nc1nccs1)(c1ccccc1)c1ccccc1`, inactive: 7.03%; under `CC(C)C(=O)NC(Sc1ccccc1)C(Cl)(Cl)Cl` (stereo not drawn), inactive: -2.33%.
The same measure for `c1nnnn1CCn1cnnn1`: inactive: 11%; for `CN(C)C1(CNC(=O)c2ccc(Cl)c(S(N)(=O)=O)c2)CCCCC1`: inactive: -24.4%.
Under `O=P(Nc1ccccn1)(c1ccc(Br)cc1)c1ccc(Br)cc1` stands inactive: 23.1%; under `Nc1ccc(CCCCOc2ccccc2)cc1`, inactive: -47.7%.
Take `COc1ccc(N)c([N+](=O)[O-])c1[N+](=O)[O-]`: the inhibition was inactive: 8.6%.
Under `C[C@H]1OP(=O)(Oc2ccccc2)[C@H](O)[C@H](O)[C@H]1N=[N+]=[N-]` (stereo partly drawn) stands inactive: 5.4%; under `O=P(Nc1nc2ccccc2s1)(c1ccccc1)c1ccccc1`, inactive: -51.4%; under `O=[As](O)(c1ccccc1)c1ccc(O)cc1`, inactive: 9.19%.
Under `CC(=O)NC(SC(=S)N(C)C)C(Cl)(Cl)Cl` (stereo not drawn) stands inactive: 2.45%; under `O=[N+]([O-])c1ncn(CCn2cnc([N+](=O)[O-])n2)n1`, inactive: -3.89%.
Under `O=[N+]([O-])c1ccc(O)c(/C=N/Nc2ccc([N+](=O)[O-])cc2[N+](=O)[O-])c1` stands inactive: 76.5%; under `O=C(OC1CN2CCC1CC2)c1cccc(Cl)c1` (stereo not drawn), inactive: -7.75%; under `Nc1ccc([As](=O)(O)c2ccc([N+](=O)[O-])cc2)cc1`, inactive: -9.77%.
With `C(Cc1nn[nH]n1)Cc1nn[nH]n1`, the inhibition is inactive: -19.5%.
Under `Cc1ccc(C(=O)OC2CN3CCC2CC3)cc1` (stereo not drawn) stands inactive: -28.4%; under `CC1CCC(C(C)C)C(OP(=O)(Nc2ccccn2)c2ccccc2)C1` (stereo not drawn), inactive: 4.65%; under `Cc1nn(-c2ccccc2)c2c1P(=O)(N1CCOCC1)N(C)C(c1ccccc1)=N2` (stereo not drawn), inactive: -18.1%.
The same measure for `CN(C)C1(CNC(=O)c2ccc(S(C)(=O)=O)cc2)CCCCC1`: inactive: 15.5%.
Regarding `CCCC1OP(=O)(Nc2ccccc2)OCC1CC` (stereo not drawn), the inhibition is inactive: -20.1%.
Under `O=C(/C=C/c1ccccc1)OC1CN2CCC1CC2` (stereo not drawn) stands inactive: 0.344%.
The same measure for `Cc1ccc(S(=O)(=O)N(CCCN)CCCc2c(C)nc(N)[nH]c2=O)cc1`: inactive: -16.9%; for `O=P1(Nc2ncccn2)COc2ccccc2OC1`: inactive: 17.5%.
Under `Nc1cccc([As](=O)(O)c2ccccc2)c1` stands inactive: 5.57%; under `NS(=O)(=O)c1cccc(NC(=O)COC(=O)C(O)(c2ccccc2)c2ccccc2)c1`, inactive: 4.42%; under `O=P1(Nc2ccc(Br)cn2)COc2ccccc2OC1`, inactive: 7.7%.
As for `Cc1ccc(OCC(=O)OC2CN3CCC2CC3)cc1` (stereo not drawn), the inhibition was inactive: -9.41%.
The same measure for `O=[As](O)(c1cccs1)c1cccs1`: inactive: -25.1%; for `CCOP(=O)(NC(=NC(C)c1ccccc1)NC(C)c1ccccc1)OCC` (stereo not drawn): inactive: 10.3%; for `CCC1=CC2Cc3nc4ccc(Cl)cc4c(N)c3C(C1)C2` (stereo not drawn): inactive: 15.6%.
The same measure for `O=P1(Nc2ccccn2)COc2ccccc2OC1`: inactive: 17.6%; for `CN(CCCl)Cc1cc(Cl)c(NC2=NCCN2)c(Cl)c1`: inactive: 1.18%.
As for `CCOP(=O)(Nc1ccc(C)cn1)OCC`, the inhibition is inactive: 0.584%.
The same measure for `CC(C)(C)C(=O)NC(Sc1ncccn1)C(Cl)(Cl)Cl` (stereo not drawn): inactive: -34.2%.
